Reference: PubChem BioAssay (Tox21)
The entries are a selection whose mix differs from that of the whole data set. Results filed as inconclusive are left out. Entries that show only a call come without a potency. Activity calls are given as the source filed them. The call rests on the fitted dose curve.

test: p53 small molecule agonists, cell-based qHTS assay with human liver microsomes: qHTS cell viability counter screen (AID 1963579); conditions: p53RE-bla HCT-116 viability, ATP luminescence, 16 h, HLM; series mostly up to 66 µM; further: nearly all actives have a fitted effect of over 45% in size
Excerpt: National Center for Advancing Translational Sciences [NCATS]
Division of Preclinical Innovation [DPI]
U.S. Environmental Protection Agency [EPA]
National Institutes of Environmental Health Sciences [NIEHS]
National Toxicology Program [NTP]
U.S. Food and Drug Administration [FDA]
p53, a tumor suppressor protein, is activated following cellular insult, including DNA damage and other cellular stresses. The activation of p53 regulates cell fate by inducing DNA repair, cell cycle arrest, apoptosis, or cellular senescence. The activation of p53, therefore, is a good indicator of DNA damage and other cellular stresses. […] The activation of the reporter gene under culture conditions can be detected by fluorescence intensity. This cell line was used to screen the Tox21 10K compound library in the condition of presence of human liver microsomes and to identify agonists that activate the p53 signaling pathway after in vitro metabolic activation (Ooka et al., Archive of Toxicology 96:1975-1987, 2022).
Tox21 Assay Protocol Summary:
The p53RE-bla cells were dispensed at 4,000cells/3ul/well in 1536-well black-clear bottom plates. After the assay plates were incubated at 37 C, 5% CO2 incubator for 5 hours, 23 nL of compounds dissolved in DMSO, positive controls or DMSO only was transferred to the assay plate. Following compound addition, 3 uL of human liver microsomes (XenoTech, Kansas City, KS) at final concentration of 0.5 mg/mL and 1uL of B-Nicotinamide adenine dinucleotide 2'-phosphate (NADPH) at final concentration of 0.5 mg/mL were transferred to the assay plate. The plates were incubated at 37 C for 16 hours. 1 uL of LiveBLAzer detection mixture was added to each well and the plates were incubated at room temperature in the dark for 2 h. Fluorescence intensity at 460 and 530 nm emission and 405 nm excitation were measured by an Envision plate reader. For cell viability readout that measures cytotoxicity, 4 ul/well of CellTiter-Glo reagent was added into the assay plates using a Flying Reagent Dispenser. After 30 min incubation at room temperature, the luminescence intensity in the plates was measured using a ViewLux plate reader.
Potency means the concentration at half of the fitted maximal effect.

Row | Structure (SMILES) | Potency | activity change, negative = cytotoxicity
1 | O=P(Cl)(Oc1ccccc1)Oc1ccccc1 | inactive | 
2 | O=C(Cl)Oc1ccccc1 | inactive | 
3 | CN(N=O)C(=N)N[N+](=O)[O-] | inactive | 
4 | ClP(Cl)c1ccccc1 | inactive | 
5 | CN(C(=O)Cc1ccccc1)[C@H]1CC[C@@]2(CCCO2)C[C@@H]1N1CCCC1 | inactive | 
6 | CC(C)CCCCCCCOP(OCCCCCCCC(C)C)Oc1ccccc1 | inactive | 
7 | O=C1C2CC=CCC2C(=O)N1SC(Cl)(Cl)C(Cl)Cl (stereo not drawn) | inactive | 
8 | COC(=O)Cl | inactive | 
9 | CCCCC(CC)CO[P+](=O)OCC(CC)CCCC (stereo not drawn) | inactive | 
10 | CCNC(C)Cc1ccc2c(c1)OCO2 (stereo not drawn) | inactive | 
11 | O=[As]c1ccccc1 (stereo not drawn) | active: 1290 nM | 
12 | CC(C)OP(=S)(OC(C)C)SCCNS(=O)(=O)c1ccccc1 | inactive | 
13 | CN(C(=O)Cc1cccc2occc12)[C@H]1CC[C@@]2(CCCO2)C[C@@H]1N1CCCC1 | inactive | 
14 | CCC(C)(OOC(C)(C)C)OOC(C)(C)C |  | inactive: -9.49% [at 13.5 µM]
15 | Cc1cc([N+](=O)[O-])c(O)c([N+](=O)[O-])c1 | inactive | 
16 | CCCCOP(OCCCC)OCCCC | inactive | 
17 | CCOP(=S)(CC)Sc1ccccc1 (stereo not drawn) | inactive | 
18 | O=C(Cl)OCCOC(=O)Cl | inactive | 
19 | COP(=S)(Cl)OC | inactive | 
20 | O=[N+]([O-])c1ccc(S(=O)(=O)O)c([N+](=O)[O-])c1 | inactive | 
21 | O=[N+]([O-])c1ccc([N+](=O)[O-])cc1 | inactive | 
22 | O=P(Cl)(Cl)c1ccccc1 | inactive | 
23 | O=[P+](Oc1ccccc1)Oc1ccccc1 | inactive | 
24 | CCCCO[P+](=O)OCCCC | inactive | 
25 | Cc1cc([N+](=O)[O-])cc([N+](=O)[O-])c1O | inactive | 
26 | NC(=O)Nc1ccc([As](=O)(O)O)cc1 | inactive | 
27 | CCOC(=O)Cl | inactive | 
28 | CN(C(=O)Cc1ccc(Cl)c(Cl)c1)[C@H]1CC[C@@]2(CCCO2)C[C@@H]1N1CCCC1 | inactive | 
